What was measured:
[1] = molecular target: Mu-type opioid receptor (Cavia porcellus, UniProt P97266); assay: Displacement of [3H]DAMGO from MOR in guinea pig brain membranes after 120 mins by scintillation counting method
[2] = molecular target: Delta-type opioid receptor (Rattus norvegicus, UniProt P33533); assay: Displacement of [3H]DPDPE from DOR in Sprague-Dawley rat brain membranes after 120 mins by scintillation counting method; conditions: strain Sprague-Dawley
[3] = molecular target: Kappa-type opioid receptor (Cavia porcellus, UniProt P41144); assay: Displacement of [3H]U-69,593 from KOR in guinea pig brain membranes after 120 mins by scintillation counting method
[4] = molecular target: Kappa-type opioid receptor (Homo sapiens, UniProt P41145)
[5] = molecular target: Sigma non-opioid intracellular receptor 1 (Cavia porcellus, UniProt Q60492)

Sequences of proteins named here, by UniProt entry; tags and fusion partners are left off. A change or cut given only in a name is not applied to a line headed by its entry.
UniProt P97266, whole entry, looked up: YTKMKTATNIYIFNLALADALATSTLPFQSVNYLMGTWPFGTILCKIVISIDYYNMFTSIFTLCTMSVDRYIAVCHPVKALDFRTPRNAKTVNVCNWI
UniProt P33533, whole entry, looked up: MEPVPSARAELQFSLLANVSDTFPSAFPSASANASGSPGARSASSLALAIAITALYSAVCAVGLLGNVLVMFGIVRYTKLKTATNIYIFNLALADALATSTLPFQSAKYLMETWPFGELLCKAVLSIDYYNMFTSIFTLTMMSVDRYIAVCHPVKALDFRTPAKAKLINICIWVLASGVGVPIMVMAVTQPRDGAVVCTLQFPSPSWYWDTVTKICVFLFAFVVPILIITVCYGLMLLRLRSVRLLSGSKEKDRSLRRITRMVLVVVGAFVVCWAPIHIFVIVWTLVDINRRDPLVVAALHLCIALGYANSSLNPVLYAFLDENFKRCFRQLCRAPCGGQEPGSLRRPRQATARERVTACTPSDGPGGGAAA
UniProt P41144: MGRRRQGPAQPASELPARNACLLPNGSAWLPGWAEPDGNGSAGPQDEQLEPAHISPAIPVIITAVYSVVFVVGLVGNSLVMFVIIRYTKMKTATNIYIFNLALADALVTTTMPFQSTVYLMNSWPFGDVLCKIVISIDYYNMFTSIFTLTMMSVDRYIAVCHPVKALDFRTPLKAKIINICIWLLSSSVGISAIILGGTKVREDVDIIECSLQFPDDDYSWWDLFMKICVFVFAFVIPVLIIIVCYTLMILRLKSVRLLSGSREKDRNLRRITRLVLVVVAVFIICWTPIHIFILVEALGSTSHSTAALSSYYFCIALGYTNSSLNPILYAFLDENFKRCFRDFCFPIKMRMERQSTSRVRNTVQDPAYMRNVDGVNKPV
UniProt P41145: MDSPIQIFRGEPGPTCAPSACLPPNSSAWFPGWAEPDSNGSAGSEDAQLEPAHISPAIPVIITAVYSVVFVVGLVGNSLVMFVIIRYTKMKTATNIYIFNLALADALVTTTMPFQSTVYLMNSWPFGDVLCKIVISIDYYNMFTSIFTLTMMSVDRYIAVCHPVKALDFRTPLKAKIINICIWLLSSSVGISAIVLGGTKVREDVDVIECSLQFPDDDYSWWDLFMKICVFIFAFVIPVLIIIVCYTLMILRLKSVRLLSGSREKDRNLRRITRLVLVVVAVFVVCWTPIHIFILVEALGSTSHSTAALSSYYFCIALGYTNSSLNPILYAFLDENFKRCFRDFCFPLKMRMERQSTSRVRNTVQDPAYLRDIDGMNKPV
UniProt Q60492, whole entry, looked up: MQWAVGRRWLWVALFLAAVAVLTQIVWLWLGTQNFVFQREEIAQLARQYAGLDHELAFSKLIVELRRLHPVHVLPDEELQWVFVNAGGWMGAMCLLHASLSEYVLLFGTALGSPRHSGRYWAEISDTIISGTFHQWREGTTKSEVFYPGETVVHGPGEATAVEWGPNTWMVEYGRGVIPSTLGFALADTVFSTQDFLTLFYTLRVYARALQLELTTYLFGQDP

Compound	Ki [1]	Ki [2]	Ki [3]	Ki [4]	Ki [5]
O=C(Cc1ccc(Cl)c(Cl)c1)N1CCN(C(=O)Cn2cc(CCCF)nn2)[C@H]2CCC[C@H](N3CCCC3)[C@H]21	947 nM	425 nM	3.3 nM	–	–
CN1CCN(C(=O)Cc2ccc(Cl)c(Cl)c2)[C@H]2[C@@H]1CCC[C@@H]2N1CCCC1	–	333 nM	2.3 nM	11 nM	–
CCCCN1CCN(C(=O)Cc2ccc(Cl)c(Cl)c2)[C@@H]2[C@@H](N3CCCC3)CCC[C@@H]21 (racemic)	2600 nM	2500 nM	6.6 nM	16 nM	876 nM
O=C(Cc1ccc(Cl)c(Cl)c1)N1CCN(Cc2cn(CCF)nn2)[C@H]2CCC[C@H](N3CCCC3)[C@H]21	573 nM	–	–	–	–
O=C(Cc1ccc(Cl)c(Cl)c1)N1CCN[C@H]2CCC[C@H](N3CCCC3)[C@H]21	–	205 nM	0.54 nM	4.8 nM	–
O=C(Cc1ccc(Cl)c(Cl)c1)N1CCN(C(=O)COCCF)[C@H]2CCC[C@H](N3CCCC3)[C@H]21	–	1100 nM	15 nM	77 nM	–
O=C(Cc1ccc(Cl)c(Cl)c1)N1CCN(CCF)[C@H]2CCC[C@H](N3CCCC3)[C@H]21	–	–	2.2 nM	–	–
CC(C)(C)OC(=O)N1CCN(C(=O)Cc2ccc(Cl)c(Cl)c2)[C@@H]2[C@@H](N3CCCC3)CCC[C@@H]21	260 nM	–	–	18 nM	–
CCN1CCN(C(=O)Cc2ccc(Cl)c(Cl)c2)[C@H]2[C@@H]1CCC[C@@H]2N1CCCC1	3300 nM	1100 nM	4.2 nM	11 nM	–
O=C(Cc1ccc(Cl)c(Cl)c1)N1CCN(CCCCF)[C@H]2CCC[C@H](N3CCCC3)[C@H]21	–	–	8 nM	–	–
O=C(Cc1ccc(Cl)c(Cl)c1)N1CCN(Cc2ccc(F)cc2)[C@H]2CCC[C@H](N3CCCC3)[C@H]21	–	397 nM	81 nM	42 nM	1600 nM
CCCN1CCN(C(=O)Cc2ccc(Cl)c(Cl)c2)[C@@H]2[C@@H](N3CCCC3)CCC[C@@H]21 (racemic)	407 nM	992 nM	1.4 nM	9.2 nM	1800 nM

Source: ChEMBL document CHEMBL4371059 (J Med Chem, 2019)
